Literature values, collected in patent publication US20190183948A1, “USE OF BCL-XL INHIBITOR AND ONCOLYTIC VIRUS IN PREPARATION OF ANTITUMOR DRUG” (GUANGZHOU VIROTECH PHARMACEUTICAL CO., LTD., priority 2016, published 2019).

The chains behind the UniProt entries cited, without tags or fusion partners.
UniProt P10415, whole entry, species assumed: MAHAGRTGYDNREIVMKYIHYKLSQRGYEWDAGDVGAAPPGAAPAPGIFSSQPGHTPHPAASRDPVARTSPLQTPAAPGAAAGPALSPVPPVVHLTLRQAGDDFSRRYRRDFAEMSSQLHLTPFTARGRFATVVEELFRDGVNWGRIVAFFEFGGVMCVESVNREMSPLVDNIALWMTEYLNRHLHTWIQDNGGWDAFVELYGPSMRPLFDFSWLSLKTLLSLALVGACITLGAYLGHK

Target: Bcl-2 (Homo sapiens, UniProt P10415)
Conditions: cited from earlier work

## CC1(C)CCC(c2ccc(Cl)cc2)=C(CN2CCN(c3ccc(C(=O)NS(=O)(=O)c4ccc(N[C@H](CCN5CCOCC5)CSc5ccccc5)c(S(=O)(=O)C(F)(F)F)c4)cc3)CC2)C1 [ABT-263]
  Ki: ≤ 1 nM
